Structures can show the parent of a compound that is named as a salt.
Columns and labels:
[1] = biological target: σ1 receptors (Mus musculus, UniProt O55242); experiment: In vitro σ1 receptor binding, [^3H]; details: CD-1 mouse whole brain membranes
[2] = biological target: T1, σ2 receptors (Mus musculus, UniProt Q8VD00); experiment: In vitro σ2 receptor binding, [^3H]DTG/; design: species or system CD-1 mouse; details: for Sigma2 nH: 3.0 nM [^3H]DTG/500 nM (+)pentazocine, 25 °C, 60 min
T1 sequence (Q8VD00 1-176): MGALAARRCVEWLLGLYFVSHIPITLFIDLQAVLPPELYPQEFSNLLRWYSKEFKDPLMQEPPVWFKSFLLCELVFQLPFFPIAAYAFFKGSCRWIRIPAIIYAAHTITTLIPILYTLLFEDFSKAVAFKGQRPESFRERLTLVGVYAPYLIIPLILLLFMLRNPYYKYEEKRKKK

The chains behind the UniProt entries cited, without tags or fusion partners.
UniProt O55242, whole entry: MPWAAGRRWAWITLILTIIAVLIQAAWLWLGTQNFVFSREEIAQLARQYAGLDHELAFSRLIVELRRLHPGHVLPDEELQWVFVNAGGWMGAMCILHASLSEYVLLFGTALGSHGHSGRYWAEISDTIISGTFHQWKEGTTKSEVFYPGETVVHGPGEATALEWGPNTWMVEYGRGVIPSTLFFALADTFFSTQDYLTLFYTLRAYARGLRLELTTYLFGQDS

Structure (SMILES) | Selectivity Ki Ratio σ2/σ1 [1] | Sigma2 nH [2] | σ2 affinity relative to Kovács and Larson (1995) value (lower) ([2]; 26810 vs 1740 nM) [fold]
CC(C)=CCN1CC[C@]2(C)c3cc(O)ccc3C[C@H]1[C@H]2C [(+)-Pentazocine, (+)-pentazocine] | 404 | 0.86 ± 0.04 | –
COc1ccc2c(c1)[C@]13CCCC[C@@H]1[C@H](C2)N(C)CC3 [Dextromethorphan, dextromethorphan hydrobromide] | 425 | 1.02 ± 0.07 | 15
